# Measured affinities in a library of Ab-14 light chain variants

Antigen: PDVDLGDISGINAS, a 14-residue peptide of the SARS-CoV-2 spike HR2 region.

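The starting antibody came from a phage panning campaign against this peptide. Variants in AAYL50 differ from the parent at up to three CDR positions; double and triple changes were sampled at random. The scFvs were displayed on barcoded MATa yeast, the peptide on MATalpha yeast. Pairs that bind mate more often; barcode pairs of the diploids are counted by sequencing. The ratio of observed to expected reads was calibrated, replicate by replicate, on BCL2-family standards whose Kd was known from biolayer interferometry. Each pool was mated in three replicate cultures.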

Ab-14 is the parent antibody, in scFv form: VH, then the linker GGGGSGGGGSGGGGS, then VL. The heavy chain is unchanged in all variants.
VH: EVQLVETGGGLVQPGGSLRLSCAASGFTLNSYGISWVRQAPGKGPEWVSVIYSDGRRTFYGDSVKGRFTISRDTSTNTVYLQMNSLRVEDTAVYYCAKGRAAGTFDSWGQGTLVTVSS
VL: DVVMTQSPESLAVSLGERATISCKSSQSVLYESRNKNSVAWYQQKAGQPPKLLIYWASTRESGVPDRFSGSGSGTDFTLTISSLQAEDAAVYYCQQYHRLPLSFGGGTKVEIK

Each variant is given by its three light chain CDRs, as the data file delimits them; those of the parent are KSSQSVLYESRNKNSVA, WASTRES, QQYHRLPLS.
Numbers give log10(Kd / nM), so 0 is 1 nM and 3 is 1 µM. Smaller is tighter.
Averages over replicates are reported, and they cover detected replicates only.
"nd" means that the variant was in the library but no mating with the target was seen in any replicate; the authors take this as a sign of poor binding, and no number exists.
Nonspecific signal, from three strains lacking the peptide, appeared in 18% of pairings of library AAYL50, centred on 4.19 (5% of these signals below 2.99); values are not corrected for it. For each scFv, signals with the empty controls are counted beside the result.

nd (0 of 3 replicates; controls 0 of 9) for KSSQSVLAESRNKNSVA / WASTHES / QQYHRLPLS.
2.56 (3 of 3 replicates; controls 2 of 9) for KSSCSVLYESRNKNDVA / WASTRES / QQYHRLPLS.
0.54 (3 of 3 replicates; controls 0 of 9) for KLSQSVLYESRNQNSVA / WASTHES / QQYHRLPLS.
2.88 (2 of 3 replicates; controls 0 of 9) for KSSQSVLYMSRNKNSVA / WAMTRES / QQYARLPLS.
4.78 (1 of 3 replicates; controls 2 of 9) for KSSASVLYESRNKNSVA / WPSTRES / FQYHRLPLS.
3.68 (3 of 3 replicates; controls 4 of 9) for KKSQSQLYESRNKNSVA / WAATRES / QQYHRLPLS.
0.67 (3 of 3 replicates; controls 2 of 9) for KSSQSVLKEDRLKNSVA / WASTRES / QQYHRLPLS.
1.69 (3 of 3 replicates; controls 1 of 9) for KSSQSVLYESRTKNSMA / WASTRES / QQYHCLPLS.
3.77 (1 of 3 replicates; controls 0 of 9) for KSSQSVLPCSRNKNSVA / WANTRES / QQYHRLPLS.
2.28 (2 of 3 replicates; controls 0 of 9) for KSSFSVLYESRNKNSVA / WAWTRES / QQYHRLGLS.
0.78 (3 of 3 replicates; controls 4 of 9) for KSSQSVLYESREKHSVA / WASTRES / QQYHRLPLS.
3.50 (1 of 3 replicates; controls 0 of 9) for KSSQSVLYESRNKNSVA / WAGIRES / QQYHRLPCS.
4.69 (3 of 3 replicates; controls 7 of 9) for KPSQSVLYESRNKNSVA / WVSTRES / QQYHRLPIS.
2.04 (3 of 3 replicates; controls 0 of 9) for KSSPSVLYESRRKNSVA / WASTRAS / QQYHRLPLS.
nd (0 of 3 replicates; controls 1 of 9) for KDSQSVLYESRNKNNVA / WASTDES / QQYHRLPLS.
2.41 (1 of 3 replicates; controls 0 of 9) for KSEQSVLYESRNKNSVA / WASTQES / QQYHRLPLK.
1.02 (3 of 3 replicates; controls 1 of 9) for KSSQSVLYERRNKNSEA / WGSTRES / QQYHRLPLS.
nd (0 of 3 replicates; controls 0 of 9) for KSSQSVLYEFRNKNSVA / WAGTCES / QQYHRLPLS.
nd (0 of 3 replicates; controls 0 of 9) for KSSQSVLYESRNKWSKA / WASTRES / QYYHRLPLS.
0.34 (3 of 3 replicates; controls 0 of 9) for KSSQSVLYESRNKNSVA / HMSTRES / EQYHRLPLS.
3.27 (3 of 3 replicates; controls 1 of 9) for DSSQWVLYESRNKNEVA / WASTRES / QQYHRLPLS.
nd (0 of 3 replicates; controls 0 of 9) for KSSQSVLYESRNKNSVA / CASTRES / QQYHRLILS.
1.44 (3 of 3 replicates; controls 0 of 9) for KSSQSVLYHSNNKNSVA / WASTRES / QQYHRLPLR.
4.64 (1 of 3 replicates; controls 4 of 9) for KSSQSVLYESRNKNSVN / WASTRES / AQEHRLPLS.
nd (0 of 3 replicates; controls 1 of 9) for KSSQSVDYESRNKNSVA / WASLMES / QQYHRLPLS.
0.87 (3 of 3 replicates; controls 2 of 9) for KASQSVLYESRYKNSVA / WASTREY / QQYHRLPLS.
nd (0 of 3 replicates; controls 0 of 9) for KSSQSVLYESRPKNSVA / WASTRED / QQYHRLPLS.
0.49 (3 of 3 replicates; controls 6 of 9) for KASQSVFYESENKNSVA / WASTRES / QQYHRLPLS.
4.62 (2 of 3 replicates; controls 4 of 9) for KSSQSVLYESRNRNSVA / WASSRES / QQYPRLPLS.
nd (0 of 3 replicates; controls 2 of 9) for KSSQSVLYWSRQKNSVA / WASTRES / QQYHRLPAS.
4.40 (3 of 3 replicates; controls 3 of 9) for KSSQSVLYESRNKNSTA / WASTRIS / QQTHRLPLS.
nd (0 of 3 replicates; controls 1 of 9) for MSSQSVLYESRNKNSVA / WALTRES / VQYHRLPLS.
3.91 (1 of 3 replicates; controls 2 of 9) for KYSQSVLYESRNKWSVA / WASTDES / QQYHRLPLS.
4.06 (2 of 3 replicates; controls 3 of 9) for KSSQSVLYESRNKVSVA / WASTRES / QQYHVAPLS.
1.96 (3 of 3 replicates; controls 4 of 9) for KSSQSVLYEHRHKNSVA / WASTRES / QQYHRLPLS.

Excerpt, the final 4 entries:

{"CDR-L1": "MSSQSVLYESRNKNSVA", "CDR-L2": "WALTRES", "CDR-L3": "VQYHRLPLS", "mean, log10 nM": "nd", "replicates with signal": "0 of 3", "control signals": "1 of 9"}
{"CDR-L1": "KYSQSVLYESRNKWSVA", "CDR-L2": "WASTDES", "CDR-L3": "QQYHRLPLS", "mean, log10 nM": "3.91", "replicates with signal": "1 of 3", "control signals": "2 of 9"}
{"CDR-L1": "KSSQSVLYESRNKVSVA", "CDR-L2": "WASTRES", "CDR-L3": "QQYHVAPLS", "mean, log10 nM": "4.06", "replicates with signal": "2 of 3", "control signals": "3 of 9"}
{"CDR-L1": "KSSQSVLYEHRHKNSVA", "CDR-L2": "WASTRES", "CDR-L3": "QQYHRLPLS", "mean, log10 nM": "1.96", "replicates with signal": "3 of 3", "control signals": "4 of 9"}

For reference, the parent read 0.65 as the reference entry and 1.68 as a member of this library.

Values reported by Engelhart et al. 2022, doi:10.1038/s41597-022-01779-4 (FLAb copy).